By UniProt entry, the sequences of proteins in these tests, tags left out. Residues count along the entry.
UniProt P23739, 2-1013 partner limits assumed: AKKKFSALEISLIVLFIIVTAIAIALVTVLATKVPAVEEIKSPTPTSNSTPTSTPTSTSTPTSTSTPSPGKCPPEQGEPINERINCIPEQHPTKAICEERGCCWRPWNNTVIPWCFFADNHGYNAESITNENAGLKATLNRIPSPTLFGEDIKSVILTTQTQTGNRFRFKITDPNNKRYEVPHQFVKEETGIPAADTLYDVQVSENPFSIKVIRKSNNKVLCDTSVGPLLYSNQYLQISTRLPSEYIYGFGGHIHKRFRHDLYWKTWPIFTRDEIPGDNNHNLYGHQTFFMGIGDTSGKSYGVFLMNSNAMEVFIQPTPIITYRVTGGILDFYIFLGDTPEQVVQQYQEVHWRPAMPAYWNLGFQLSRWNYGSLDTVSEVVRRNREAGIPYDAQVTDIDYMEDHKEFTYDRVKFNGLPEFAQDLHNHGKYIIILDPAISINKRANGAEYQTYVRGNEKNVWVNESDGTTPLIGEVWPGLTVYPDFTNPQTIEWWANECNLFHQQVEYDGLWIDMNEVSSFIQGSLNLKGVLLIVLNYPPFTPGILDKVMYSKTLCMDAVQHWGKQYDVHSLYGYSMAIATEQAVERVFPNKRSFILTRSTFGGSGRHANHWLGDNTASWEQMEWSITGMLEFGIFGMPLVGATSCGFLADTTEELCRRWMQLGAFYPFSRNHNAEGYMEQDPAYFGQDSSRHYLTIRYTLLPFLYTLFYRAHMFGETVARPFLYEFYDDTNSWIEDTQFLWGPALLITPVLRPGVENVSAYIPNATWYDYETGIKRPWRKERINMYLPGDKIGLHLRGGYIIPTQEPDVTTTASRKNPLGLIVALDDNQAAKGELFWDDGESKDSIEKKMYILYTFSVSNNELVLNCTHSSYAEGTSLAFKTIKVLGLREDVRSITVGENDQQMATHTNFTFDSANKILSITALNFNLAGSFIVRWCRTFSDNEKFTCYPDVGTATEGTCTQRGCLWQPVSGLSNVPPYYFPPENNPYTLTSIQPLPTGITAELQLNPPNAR
UniProt P23739, 1014-1841 limits assumed: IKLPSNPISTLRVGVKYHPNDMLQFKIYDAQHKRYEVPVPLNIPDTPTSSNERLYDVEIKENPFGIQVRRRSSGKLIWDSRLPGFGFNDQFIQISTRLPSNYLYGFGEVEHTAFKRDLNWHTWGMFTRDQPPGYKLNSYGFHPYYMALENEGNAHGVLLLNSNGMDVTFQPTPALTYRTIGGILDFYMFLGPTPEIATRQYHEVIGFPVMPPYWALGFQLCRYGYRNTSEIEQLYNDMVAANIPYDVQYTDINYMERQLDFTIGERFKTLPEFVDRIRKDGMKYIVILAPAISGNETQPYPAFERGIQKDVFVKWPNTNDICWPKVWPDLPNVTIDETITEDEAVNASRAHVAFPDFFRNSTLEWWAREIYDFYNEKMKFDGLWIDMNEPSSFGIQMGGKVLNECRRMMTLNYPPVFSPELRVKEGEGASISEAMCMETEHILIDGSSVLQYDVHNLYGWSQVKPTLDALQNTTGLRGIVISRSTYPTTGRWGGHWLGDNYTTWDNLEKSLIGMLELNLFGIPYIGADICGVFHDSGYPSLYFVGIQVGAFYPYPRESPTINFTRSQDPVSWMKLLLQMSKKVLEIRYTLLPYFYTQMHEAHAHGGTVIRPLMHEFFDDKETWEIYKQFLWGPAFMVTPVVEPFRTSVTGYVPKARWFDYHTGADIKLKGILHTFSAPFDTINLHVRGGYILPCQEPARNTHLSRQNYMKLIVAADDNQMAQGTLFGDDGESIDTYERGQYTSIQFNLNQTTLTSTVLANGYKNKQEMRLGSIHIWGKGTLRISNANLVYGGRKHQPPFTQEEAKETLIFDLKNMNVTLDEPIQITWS

According to publication PMC2956102 (International Journal of Molecular Sciences, 2010):

Target: T1, intestinal sucrase (Rattus norvegicus, UniProt P23739)
T1 construct: 100 mg of rat intestinal acetone powder was homogenized in 3 mL of 0.9% NaCl solution; tissue Sigma Chemical Co. Ltd. (St. Louis, MO); host or cells: rat intestine (acetone powder, supernatant of the saline homogenate)
Assay: Intestinal α-glucosidase (sucrase) inhibition assay, rat intestinal acetone powder
Type: biochemical
Details: 54 mM sucrose, pH 6.9, 37 °C, 60 min; means ± S.E.M., n = 3
Experimental: The assessment of α-glucosidase inhibitory activity was performed according to our previous report. Briefly, 100 mg of rat intestinal acetone powder was homogenized in 3 mL of 0.9% NaCl solution. After centrifugation (12,000 g × 30 min), 10 μL of the supernatant (maltase = 0.68 units/mg protein, sucrase = 0.10 units/mg protein) was incubated with 70 μL of substrate solution (37 mM maltose, 54 mM sucrose), and 20 μL of sample at various concentrations in 0.1 M phosphate buffer pH 6.9 at 37 °C for 30 min (maltase assay) and 60 min (sucrase assay). The mixtures were suspended in boiling water for 10 min to stop the reaction. The concentrations of glucose released from the reaction mixtures were determined by glucose oxidase method. Acarbose was used as a positive control for this assay.
The reaction was performed according to the above assay (α-glucosidase and pancreatic α-amylase). Results were expressed as a percentage inhibition of the corresponding control values.

Q: With `C[C@H]1O[C@H](O[C@H]2[C@H](O)[C@@H](O)[C@@H](O[C@H]3[C@H](O)[C@@H](O)C(O)O[C@@H]3CO)O[C@@H]2CO)[C@H](O)[C@@H](O)[C@@H]1N[C@H]1C=C(CO)[C@@H](O)[C@H](O)[C@H]1O` (stereo partly shown) [Acarbose] as the molecule, how does the IC50 read?
A: 90 ± 40 µM
